Data published in patent US20250042961A1, “P53 PEPTIDOMIMETIC MACROCYCLES” (MERCK SHARP & DOHME LLC, priority 2021, published 2025).

Assays:
[1] = test system: p53 responsive β-lactamase reporter in HCT116 cells; assay: p53 beta-lactamase reporter gene cellular functional assay; assay type: cell-based
[2] = test system: Jump-In T-REx CHO-K1 BLA cells; assay: Tetracycline beta-lactamase reporter gene cellular assay (counterscreen); assay type: cell-based
[3] = Circular dichroism (CD) helicity; assay type: physicochemical
Procedure: A total of 5 μL of the 10 mM stock peptide was mixed with 45 μL of 100% methanol and dried for 2 hours in the SpeedVac™ concentrator (Thermo Scientific). The dried peptide was reconstituted in a buffer (1 mM Hepes pH 7.4 and 5% methanol) to a concentration of 1 mM. The peptide sample was placed in a quartz cuvette with a path length of 0.2 cm. The peptide concentration was determined by the absorbance of the peptide at […]. The CD spectrum was recorded from 300 to 190 nm using the Chirascan-plus qCD machine (Applied Photophysics, Surrey, UK), at 25° C. All experiments were done in duplicates. The CD spectrum was converted to mean residue ellipticity before deconvolution and estimation of the secondary structure components of the peptide using the CDNN software (distributed by Applied Photophysics). Measurements were taken at least twice and were reported as arithmetic means.

HCT116 = assay type: cell-based; conditions: 72 hours, 10% serum
From the text: (§1) To further establish the impact of the above modification in making cleaner “drug” like compounds, we profiled a set of compounds of the invention in cellular proliferation assays (Table 3).

p53 null Ca Ski = assay type: cell-based; conditions: 72 hours, 10% serum
From the text: as §1

[4] = read-out: p53 activity EC50 (0% FBS, 4 h), 0% FBS, 4 h
[5] = read-out: p53 activity EC50 (10% FBS, 16 h), 10% FBS, 16 h
[6] = read-out: Counter screen EC50 (0% FBS, 4 h), 0% FBS, 4 h
[7] = read-out: Counter screen EC50 (10% FBS, 16 h), 10% FBS, 16 h

Question: For `CC(C)C[C@@H](NC(=O)[C@@]1(C)CCCC=CCCC[C@@](C)(NC(=O)[C@@H](C)NC(=O)[C@@H](Cc2ccc(O)cc2)NC(=O)[C@@H](Cc2c[nH]c3cc(F)ccc23)NC(=O)[C@@H](C)NC(=O)[C@H](N)[C@H](C)O)C(=O)N[C@H](Cc2ccc(C(F)(F)F)cc2)C(=O)N[C@H](CCC(=O)O)C(=O)N[C@H](CCCCN)C(=O)N1)C(=O)N[C@H](CCCNC(=N)N)C(N)=O` [Compound 1, ^DPMI-δ-(6-10 olefinstaple)-NH2, reference compound], which EC50 [1, 4] is on record?
Answer: 10.1 µM

Question: And the EC50 [1, 5]?
Answer: > 50 µM

Question: And the EC50 [2, 6]?
Answer: 10.7 µM

Question: And the EC50 [2, 7]?
Answer: > 50 µM

Question: What about the “CD (% helicity)” value [3] of the same compound?
Answer: 38.6%

Question: And the chromatographic logD (HPLC LogD)?
Answer: 2.26

Question: With `CC(=O)N[C@@H](C(=O)N[C@H](C)C(=O)N[C@H](Cc1c[nH]c2cc(F)ccc12)C(=O)N[C@H](Cc1ccc(O)cc1)C(=O)N[C@@]1(C)CCCC#CC#CCCCC[C@](C)(C(=O)N[C@H](C)C(=O)N[C@H](C)C(=O)N[C@H](C)C(=O)N[C@H](C)C(=O)N[C@H](C)C(=O)N[C@H](C)C(N)=O)NC(=O)[C@@H](CC(C)C)NC(=O)[C@@H](CC(C)C)NC(=O)[C@@H](CCC(N)=O)NC(=O)[C@@H](CCC(=O)O)NC(=O)[C@@H](Cc2ccc(C(F)(F)F)cc2)NC(=O)[C@@H](CC(N)=O)NC1=O)[C@H](C)O` [Compound 9, Acetyl-^DPMI-δ-(5-12 alkynestaple) (D-K9D-Q, 6x(D-Ala)polypeptidetail)-NH2] as the compound, how does the “overall improvement of cellular activity compared to parent peptide” value ([1]; 10% serum) read?
Answer: 100 fold

Question: What about the EC50 [1, 4] of the same compound?
Answer: 3.97 µM

Question: What about the EC50 [1, 5] of the same compound?
Answer: 0.3 µM

Question: What about the EC50 [2, 6] of the same compound?
Answer: > 50 µM

Question: What about the EC50 [2, 7] of the same compound?
Answer: > 50 µM

Question: And the “CD (% helicity)” value [3]?
Answer: 38.9%

Question: And the “HCT116 proliferation % Max” value (HCT116)?
Answer: 73%

Question: What about the EC50 (HCT116; read-out: HCT116 proliferation EC50) of the same compound?
Answer: 0.65 µM

Question: And the “p53 null Ca Ski proliferation % Max (inhibition at maximum concentration)” value (p53 null Ca Ski)?
Answer: −0.5%^

Question: And the “HPLC LogD” value (HPLC LogD)?
Answer: 2.12

Question: What does the source list for `CC(=O)N[C@@H](C(=O)N[C@H](C)C(=O)N[C@H](Cc1c[nH]c2cc(F)ccc12)C(=O)N[C@H](Cc1ccc(O)cc1)C(=O)N[C@@]1(C)CCCC#CC#CCCCC[C@](C)(C(=O)N[C@H](CCC(=O)O)C(=O)N[C@H](C)C(=O)N[C@H](C)C(=O)N[C@H](C)C(=O)N[C@H](C)C(=O)N[C@H](C)C(N)=O)NC(=O)[C@@H](CC(C)C)NC(=O)[C@@H](CC(C)C)NC(=O)[C@@H](CCC(N)=O)NC(=O)[C@@H](CCC(=O)O)NC(=O)[C@@H](Cc2ccc(C(F)(F)F)cc2)NC(=O)[C@@H](CC(N)=O)NC1=O)[C@H](C)O` [Compound 10, Acetyl-^DPMI-δ-(5-12 alkynestaple) (D-K9D-Q, (D-E)-5x(D-A)polypeptidetail)-NH2]?
Answer: EC50 [1, 4]: 9.47 µM; EC50 [1, 5]: 5 µM; EC50 [2, 6]: > 50 µM; EC50 [2, 7]: > 50 µM; CD (% helicity) [3]: 38.9%

Read-outs that look alike come from different tables or passages of the source.
